## AlphaSeq binding of Ab-14 light chain variants to a spike HR2 peptide

Target: peptide PDVDLGDISGINAS, taken from heptad repeat 2 (HR2) of SARS-CoV-2 spike.

Each scFv is VH, three GGGGS repeats, VL, as in the parent Ab-14, and differs from it in the CDRs of the light chain only.
VH: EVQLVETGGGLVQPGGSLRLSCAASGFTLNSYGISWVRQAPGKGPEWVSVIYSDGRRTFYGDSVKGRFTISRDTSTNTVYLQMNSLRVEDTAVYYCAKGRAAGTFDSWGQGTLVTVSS
VL: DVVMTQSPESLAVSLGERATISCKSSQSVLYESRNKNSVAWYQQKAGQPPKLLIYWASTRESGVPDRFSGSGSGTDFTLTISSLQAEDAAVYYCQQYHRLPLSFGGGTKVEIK

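The starting antibody came from a phage panning campaign against this peptide. The variants were designed computationally from a first round of random CDR variants and then made and measured. Several design methods are mixed in this list. Affinity was read by AlphaSeq, a pooled yeast mating assay with surface-displayed partners. The frequency of each diploid, read from paired DNA barcodes, reflects how well the two displayed proteins bind. Each replicate has its own calibration line, from reference interactions of the BCL2 family. There are six technical replicates.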

The parent's light chain CDRs are KSSQSVLYESRNKNSVA, WASTRES, QQYHRLPLS; each variant's own CDRs replace them letter for letter. This list holds designs with at most six substitutions. Each Kd is an estimate from the mating assay, the geometric mean of the replicates in which the pair was seen; lower is stronger. An entry "no signal" has no value in the source: the pair was not observed among the diploids in any replicate. This suggests poor binding but is not conclusive.

- KLQQSVEYESRNKNSVA / EASTRES / QQYHRLPLS = 63 nM (6 of 6 replicates; controls 0 of 18)
- KSLWSVYYESNNKNSVA / HASTRED / QQYHRLPLS = 59 nM (6 of 6 replicates; controls 1 of 18)
- KSSKSVLYESRNKNSVA / MASTREV / QQYHRLPLS = 4.1 nM (6 of 6 replicates; controls 0 of 18)
- KLQQSQEYESRNKNSVA / NASQRES / QQYHRLPLS = 970 pM (6 of 6 replicates; controls 0 of 18)
- KSFQSMLYEGENKNSVA / KASTRES / QQYHRLPLS = 2.3 nM (6 of 6 replicates; controls 0 of 18)
- KLSQSVLYESRNSNSVA / DASTRES / QDYHRLPLS = 1.7 nM (6 of 6 replicates; controls 1 of 18)
- KSSQSVLYESGNKPSVA / NASTRES / PQHHRLPLS = no signal (0 of 6 replicates; controls 3 of 18)
- KQSQSVLPEGRNKNSVA / WASTRES / QQYHRLPLS = 190 nM (3 of 6 replicates; controls 0 of 18)
- KLQQSTLYESRNKNSVA / HASTRES / QQYHRLPLS = 1.3 nM (6 of 6 replicates; controls 1 of 18)
- KSSQSVLYEDKNVNSVA / HASQRCS / QQYHRLPLS = 3.0 nM (6 of 6 replicates; controls 1 of 18)
- KVSQSVLYESRNKNSVA / EASTRES / QQYHRLPLM = 1.8 nM (6 of 6 replicates; controls 2 of 18)
- KSSQSVLYERRDKNSVA / WASTRVE / QQYHRIPLS = 77 nM (2 of 6 replicates; controls 0 of 18)
- KVLQSVLYESRNKNSVA / NASTRES / QQYHRLPLS = 510 pM (6 of 6 replicates; controls 1 of 18)
- KLSQSVLYEERNKNSVA / GASTRES / QQYHRLPLS = 690 pM (6 of 6 replicates; controls 0 of 18)
- KSSQWVLYESRNKNAVA / WASTRES / QQYHRLPLS = no signal (0 of 6 replicates; controls 0 of 18)
- KQSQSVLYESRNKNSVA / DASTRES / QQYHRLPLD = 9.5 nM (6 of 6 replicates; controls 2 of 18)
- KSSQSVLFESRNKNSVA / DASTRES / QQMQRLPLS = 900 pM (6 of 6 replicates; controls 1 of 18)
- KLSQSFLYESRNKMSVA / NASTREE / QQYHRLPLS = 350 pM (6 of 6 replicates; controls 0 of 18)
- KYSQSVLYEWRNKNSVA / EASTRES / QQYHRLPLS = 820 pM (6 of 6 replicates; controls 1 of 18)
- KSSQSVLYESQEKNSVA / WASTREP / QQYHRLPLS = 20 nM (6 of 6 replicates; controls 0 of 18)
- HSSPSVPYESRNKNSVA / NASTREQ / QDYHRLPLS = 720 pM (6 of 6 replicates; controls 0 of 18)
- KSSQSILYESRNKNSVA / WASTHES / QQYHYLPLS = no signal (0 of 6 replicates; controls 0 of 18)
- KSSWSVLGESRWKNSVA / DASTRSS / QQYHRLPLS = 1.0 nM (6 of 6 replicates; controls 0 of 18)
- KSSQSQLYESRNFNSVA / GASTRES / QQYHRLPLS = 910 pM (6 of 6 replicates; controls 0 of 18)
- KFEQSHLYESRNKNSVA / NASTRES / QQYHRLPLS = 960 pM (6 of 6 replicates; controls 4 of 18)
- KSMQSLLYESRNKNSVA / WASERES / QQYHRLPLS = 240 nM (6 of 6 replicates; controls 0 of 18)
- KSSQSDDYESRNKNSVA / AASTRES / QQYHRLPLS = 2.4 nM (6 of 6 replicates; controls 1 of 18)
- KLSQSVLYEDRNKNSVA / NASTRSS / QQYHRLPLS = 910 pM (6 of 6 replicates; controls 1 of 18)
- KQLYSVLYESRNKNSVA / DASTRES / QQYHRLPLS = 3.8 nM (6 of 6 replicates; controls 1 of 18)
- HSAQSVLYESRMKNSVA / WASTRES / QQYHRLPLS = 260 nM (6 of 6 replicates; controls 2 of 18)
- KLSQSELYESRAKNSVA / EASTRES / QQYHRLPLS = 490 pM (6 of 6 replicates; controls 1 of 18)
- HLSQSVLYESRNKNSVA / NASTREE / QQYHRLPLS = 430 pM (6 of 6 replicates; controls 1 of 18)
- KCMGSSLYESRNKNSVA / NASTREV / QQYHRLPLS = 520 pM (6 of 6 replicates; controls 1 of 18)
- KFSQSVLYESHNKNSVA / EASTRES / QQYHRLPLS = 3.4 nM (6 of 6 replicates; controls 0 of 18)
- KSSLSVLVESRNKNSVA / WAMTRES / QQYHRLPLS = 12 nM (1 of 6 replicates; controls 0 of 18)
- KSSQSVWYESRNKNSVA / GASTRES / QQYHRLPLS = 2.4 nM (6 of 6 replicates; controls 1 of 18)
- KLSQSFLYESRWKNSVA / NASQRES / QQYHRLPLS = 1.1 nM (6 of 6 replicates; controls 0 of 18)
- KLQQSVLYESRMKNSVA / NASTRCS / QQYHRLPLS = 680 pM (6 of 6 replicates; controls 2 of 18)
- KSCISVLYESRDKNSVA / QASTRES / QQYHRLPLS = 3.4 nM (6 of 6 replicates; controls 0 of 18)
- KLSGSVLPESRNKNSVA / SATTRLS / QQYHRLPLS = 920 pM (6 of 6 replicates; controls 2 of 18)

The opening 3 entries, copied out:

CDR-L1,CDR-L2,CDR-L3,apparent Kd,replicates with signal,empty controls
KLQQSVEYESRNKNSVA,EASTRES,QQYHRLPLS,63 nM,6/6,0/18
KSLWSVYYESNNKNSVA,HASTRED,QQYHRLPLS,59 nM,6/6,1/18
KSSKSVLYESRNKNSVA,MASTREV,QQYHRLPLS,4.1 nM,6/6,0/18

Empty control strains, which show no peptide, gave a signal in 4% of pairings with all light chain designs; the median was 430 nM and 95% of these signals were weaker than 38 nM. No background was subtracted. The control count says in how many pairings with the empty strains this scFv gave a signal. Values of this round are not directly comparable with the first-round values of the same sequences. The authors averaged sequences with at least three values out of six and counted those with two or fewer as poor binders. Of ten entries with the parent sequence, four were seen in most replicates (averages 2.2 nM to 240 nM), three in one and three in none, so single entries are noisy.

Values reported by Li et al. 2023, doi:10.1038/s41467-023-39022-2 (FLAb copy).